According to patent US11957748B2, “Vaccine to pathogenic immune activation cells during infections” (priority 2019, dated 2024):

Key:
CD4+ T cells [1] = assay: CD38 expression on CD3/CD28 stimulated CD4+ T cells; format: cell-based, human; conditions: anti-CD3/anti-CD28 stimulation, increasing dose of IFN
Experimental: FIG. 5. […] CD38 Median Fluorescence Intensity (MFI) was measured by flow cytometry in CD3^+ 7-AAD-CFSE^+ stimulated CD4^+ T cells at the end of the culture.
T cell activation: CD38 Median Fluorescence Intensity (MFI) of CD38 expression was measured by flow cytometry in CD3^+ 7-AAD-CFSE^+ stimulated CD4^+ T cells at the end of the culture.
CD4^+ T cell polyclonal stimulation: CFSE-stained CD4^+ T cells (5×10^4/well) were cultured in 96 round-bottomed microwells in the presence of ΔCD3-feeder (1×10^5/well) and plate-bound anti-CD3 Ab (2 μg/ml), soluble anti-CD28 mAb (2 μg/ml). CD4^+ T cell proliferation was evaluated with CFSE dilution assays as described above by flow cytometry. Cells were stimulated in presence of different amounts of recombinant cytokines.

CD4+ T cells [2] = assay: Allogeneic mixed lymphocyte reaction, CFSE dilution; format: cell-based, human; conditions: allogeneic poly I:C matured DC, 5 days, 10 ng/ml IFN
Experimental: FIG. 2. Anti-proliferative activity of type I and type III interferons against CD4^+ T cells. […] When indicated, anti-interferon type I receptor antibody was added. The percentage of CFSE dilution was evaluated by flow cytometry.
CFSE staining: CD4^+ T cells were stained with 1 μM CFSE (CellTrace cell proliferation kit; Molecular Probes/Invitrogen) in PBS for 8 min at 37° C. at a concentration of 1.107 cells/ml. The labeling reaction was stopped by washing twice the cell with RPMI-1640 culture medium containing 10% FBS. The cells were then re-suspended at the desired concentration and subsequently used for proliferation assays.
T cell proliferation: T cell proliferation was assessed with CFSE-dilution assays. For CFSE-dilution assay, at coculture completion, stimulated CFSE-labeled CD4^+ T cells were harvested, co-stained with anti-CD3 mAb and 7-AAD, and the percentage of proliferating cells (defined as CFSE low fraction) in gated CD3^+ 7-AAD^− cells was determined by flow cytometry.
Allogeneic mixed lymphocyte reaction: CFSE-stained CD4^+ T cells (5×10^4/well) were cultured in 96 round-bottomed microwells in the presence of allogeneic mature DC. […]
Briefly, CFSE labelled CD4^+ T cells were first stimulated with poly I:C matured allogeneic dendritic cells in presence of different dose of IFNs. At 5 days post activation, the CFSE fluorescence dilution was analyzed.

EMCV = assay: Antiviral assay: protection of HepG2 cells from EMCV-induced cytopathogenic effect (MTT); format: cell-based, EMCV (FA strain); conditions: 10 ng/ml IFN 24 h prior to EMCV challenge, MTT viability
Experimental: FIG. 1B. Antiviral activity of type I and type III interferons. Antiviral activity of type I and III IFNs against EMCV. IFNα2a or IFNλ1/2/3/4 (10 ng/ml) were added to HepG2 cells 24 h prior to challenge with EMCV. Forty-eight after infection with EMCV, cells were assayed for viability with a bioassay. A570 values were directly proportional to cell viability and therefore antiviral activity of the respective IFNs. IFN-α treatment without viral challenge was used as a baseline of the viability of the cells.
The virus used EMCV (FA strain) was grown on monolayers of Vero cells to complete cytopathic effect or until all cells were affected by the infection as determined by microscopy and prepared by two cycles of freezing and thawing, followed by centrifugation for 30 min at 5,000×g for removal of cellular debris.
Antiviral assays were done on HepG2 cells, which were seeded in DMEM supplemented with 10% FCS at a density of 1.5×10^4 in 96-well plates and left to settle. The cells were incubated with indicated doses of IFNs for 24 h before challenge with EMCV. […] The viability of the cells was analyzed by a bioassay based on the dehydrogenase system; this system in intact cells will convert the substrate, MTT, into formazan (blue), which in turn can be measured spectrophotometrically. […] Subsequently, the absorbance at 570 nm was determined employing the extraction buffer as the blank probe. […]

[3] = test system: interferon-induced genes IFIT1, MX1 and OASL in CD4+ T cells; assay: Expression of ISGs in CD4+ T cells (qRT-PCR); format: cell-based, human; conditions: 10 ng/ml, 4 h
Experimental: FIG. 3. […] CD4^+ T cells were treated with IFNα2a or IFNλ1/2/3/4 (10 ng/ml). After 4 h of stimulation, qRT-PCR were used to examine the mRNA levels of the interferon-induced genes, IFIT1, MX1 and OASL and fold-changes was calculated by 2^−ΔΔCt method as compared with non-treated cell control and using endogenous S14 mRNA level for normalization.
HepG2 cells were seeded at a density of 2×10^5 cells per well in 12-well plates and incubated for 24 h. Then, fresh media was added with the indicated interferons. The cells were incubated for 4 h and then lysed, and RNA was purified using an extraction kit (Qiagen), according to the manufacturer's instructions. Synthesis of cDNA was performed using the PrimeScript RT Reagent kit (TAKARA). Quantitative PCR was carried out using the Power SYBR Green PCR Master Mix (Applied Biosystems) on a LightCycler 480 instrument (Roche). Each reaction was carried out in duplicate in a total volume of 100 μL. Primers were designed to be intron-spanning using Primer3 or Primer Express® v3.0 software (Applied Biosystems). […] For gene induction assays, fold change values were calculated using the AACt method. […]

For “IFN-α2a: type I interferon, recombinant cytokine used at 10 ng/ml”, the “CD38 expression on stimulated CD4+ T cells” value (CD4+ T cells [1]) was “able to enhance the expression of CD38”, the “proliferation of allo-activated CD4+ T cells (CFSE dilution)” value (CD4+ T cells [2]) was “inhibits the proliferation” and the “protection of HepG2 cells challenged with EMCV (antiviral activity)” value (EMCV) was “able to fully protect HepG2 cells challenged with EMCV”. The “expression of ISGs IFIT1, MX1 and OASL in CD4+ T cells” value [3] was “induced”.
